Measurements taken from article PMC12102759 (Protein Science : A Publication of the Protein Society, 2025).

System: AP2M1 MU
Format: binding, human

Substance | PSSM value of the substitution, averaged over the two overlapping peptides | PSSM value of the substitution (DMS by phage display)
VSDIDYVPLKSATA(averaged) D3S (VSSIDYVPLKSATA) | 0 | –
VSDIDYVPLKSATA(averaged) K10F (VSDIDYVPLFSATA) | 0.0006958 | –
VSDIDYVPLKSATAIT D5A (VSDIAYVPLKSATAIT) | – | 0
QVVSDIDYVPLKSATA S4M (QVVMDIDYVPLKSATA) | – | 0
QVVSDIDYVPLKSATA A14T (QVVSDIDYVPLKSTTA) | – | 0.09674
QVVSDIDYVPLKSATA D7L (QVVSDILYVPLKSATA) | – | 0
QVVSDIDYVPLKSATA V3N (QVNSDIDYVPLKSATA) | – | 0.0005799
QVVSDIDYVPLKSATA K12V (QVVSDIDYVPLVSATA) | – | 0.0005152
VSDIDYVPLKSATAIT D5T (VSDITYVPLKSATAIT) | – | 0.1685
VSDIDYVPLKSATA(averaged) S2R (VRDIDYVPLKSATA) | 0.4027 | –
VSDIDYVPLKSATA(averaged) A12R (VSDIDYVPLKSRTA) | 0 | –
VSDIDYVPLKSATA(averaged) D5I (VSDIIYVPLKSATA) | 0.01463 | –
QVVSDIDYVPLKSATA A14A | – | 0.005667
VSDIDYVPLKSATA(averaged) P8V (VSDIDYVVLKSATA) | 0.009542 | –
VSDIDYVPLKSATA(averaged) S2I (VIDIDYVPLKSATA) | 0.0005487 | –
VSDIDYVPLKSATAIT D5P (VSDIPYVPLKSATAIT) | – | 0.0007803
QVVSDIDYVPLKSATA I6W (QVVSDWDYVPLKSATA) | – | 0.0005519
VSDIDYVPLKSATAIT V7V | – | 0.001069
VSDIDYVPLKSATA(averaged) A14W (VSDIDYVPLKSATW) | 0 | –
VSDIDYVPLKSATAIT V7I (VSDIDYIPLKSATAIT) | – | 0
QVVSDIDYVPLKSATA D5H (QVVSHIDYVPLKSATA) | – | 0
VSDIDYVPLKSATAIT I4L (VSDLDYVPLKSATAIT) | – | 0.002333
QVVSDIDYVPLKSATA S13W (QVVSDIDYVPLKWATA) | – | 0.01244

Substance | PSSM value of the substitution, averaged over the two overlapping peptides | PSSM value of the substitution (DMS by phage display)
VSDIDYVPLKSATAIT L9V (VSDIDYVPVKSATAIT) | – | 0.06522
QVVSDIDYVPLKSATA D7Y (QVVSDIYYVPLKSATA) | – | 0.000174
VSDIDYVPLKSATA(averaged) D5V (VSDIVYVPLKSATA) | 0.00146 | –
VSDIDYVPLKSATAIT I15Y (VSDIDYVPLKSATAYT) | – | 0.5822
QVVSDIDYVPLKSATA T15V (QVVSDIDYVPLKSAVA) | – | 0
VSDIDYVPLKSATA(averaged) V7Y (VSDIDYYPLKSATA) | 0.0002298 | –
VSDIDYVPLKSATA(averaged) A12T (VSDIDYVPLKSTTA) | 0.05432 | –
VSDIDYVPLKSATA(averaged) V7E (VSDIDYEPLKSATA) | 0.2865 | –
QVVSDIDYVPLKSATA A16Q (QVVSDIDYVPLKSATQ) | – | 0.8881
QVVSDIDYVPLKSATA S13N (QVVSDIDYVPLKNATA) | – | 0.05943
QVVSDIDYVPLKSATA V3M (QVMSDIDYVPLKSATA) | – | 0
VSDIDYVPLKSATAIT L9A (VSDIDYVPAKSATAIT) | – | 0
VSDIDYVPLKSATAIT A14M (VSDIDYVPLKSATMIT) | – | 0
VSDIDYVPLKSATAIT Y6Q (VSDIDQVPLKSATAIT) | – | 0
VSDIDYVPLKSATA(averaged) S2S | 0.008191 | –
QVVSDIDYVPLKSATA V9I (QVVSDIDYIPLKSATA) | – | 0.006015
VSDIDYVPLKSATAIT D3A (VSAIDYVPLKSATAIT) | – | 0
QVVSDIDYVPLKSATA V9T (QVVSDIDYTPLKSATA) | – | 0
VSDIDYVPLKSATA(averaged) D3R (VSRIDYVPLKSATA) | 0 | –
VSDIDYVPLKSATA(averaged) S11T (VSDIDYVPLKTATA) | 1.716e-5 | –
QVVSDIDYVPLKSATA T15P (QVVSDIDYVPLKSAPA) | – | 0.001757
VSDIDYVPLKSATAIT V1H (HSDIDYVPLKSATAIT) | – | 0.002131
VSDIDYVPLKSATAIT P8S (VSDIDYVSLKSATAIT) | – | 0

Substance | PSSM value of the substitution, averaged over the two overlapping peptides | PSSM value of the substitution (DMS by phage display)
VSDIDYVPLKSATA(averaged) A12E (VSDIDYVPLKSETA) | 0.1118 | –
VSDIDYVPLKSATA(averaged) T13L (VSDIDYVPLKSALA) | 0.002153 | –
VSDIDYVPLKSATAIT V1A (ASDIDYVPLKSATAIT) | – | 0
VSDIDYVPLKSATA(averaged) A12M (VSDIDYVPLKSMTA) | 0.04037 | –
VSDIDYVPLKSATAIT T13L (VSDIDYVPLKSALAIT) | – | 0.00195
VSDIDYVPLKSATAIT S2H (VHDIDYVPLKSATAIT) | – | 0
QVVSDIDYVPLKSATA V9F (QVVSDIDYFPLKSATA) | – | 0.1527
QVVSDIDYVPLKSATA V2E (QEVSDIDYVPLKSATA) | – | 0
VSDIDYVPLKSATA(averaged) A12I (VSDIDYVPLKSITA) | 0.2462 | –
VSDIDYVPLKSATAIT I15L (VSDIDYVPLKSATALT) | – | 0
QVVSDIDYVPLKSATA L11L | – | 0.6805
QVVSDIDYVPLKSATA I6M (QVVSDMDYVPLKSATA) | – | 0
QVVSDIDYVPLKSATA D7N (QVVSDINYVPLKSATA) | – | 0
VSDIDYVPLKSATA(averaged) I4Y (VSDYDYVPLKSATA) | 0.9948 | –
VSDIDYVPLKSATAIT D3E (VSEIDYVPLKSATAIT) | – | 0.002841
QVVSDIDYVPLKSATA A14M (QVVSDIDYVPLKSMTA) | – | 0
VSDIDYVPLKSATA(averaged) I4I | 0.0009213 | –
QVVSDIDYVPLKSATA A16T (QVVSDIDYVPLKSATT) | – | 0.0002126
QVVSDIDYVPLKSATA P10E (QVVSDIDYVELKSATA) | – | 0
VSDIDYVPLKSATAIT L9I (VSDIDYVPIKSATAIT) | – | 0.132
VSDIDYVPLKSATA(averaged) L9N (VSDIDYVPNKSATA) | 0 | –
QVVSDIDYVPLKSATA P10R (QVVSDIDYVRLKSATA) | – | 0
VSDIDYVPLKSATA(averaged) T13P (VSDIDYVPLKSAPA) | 0.01385 | –

Substance | PSSM value of the substitution, averaged over the two overlapping peptides | PSSM value of the substitution (DMS by phage display)
VSDIDYVPLKSATAIT T13P (VSDIDYVPLKSAPAIT) | – | 0.02594
QVVSDIDYVPLKSATA D5W (QVVSWIDYVPLKSATA) | – | 0
QVVSDIDYVPLKSATA V2A (QAVSDIDYVPLKSATA) | – | 0.000765
QVVSDIDYVPLKSATA S4F (QVVFDIDYVPLKSATA) | – | 0.0002135
QVVSDIDYVPLKSATA S4I (QVVIDIDYVPLKSATA) | – | 0
VSDIDYVPLKSATAIT D5M (VSDIMYVPLKSATAIT) | – | 0.2511
VSDIDYVPLKSATAIT K10Y (VSDIDYVPLYSATAIT) | – | 0.02179
QVVSDIDYVPLKSATA V9Y (QVVSDIDYYPLKSATA) | – | 0
QVVSDIDYVPLKSATA V2G (QGVSDIDYVPLKSATA) | – | 0
VSDIDYVPLKSATAIT P8L (VSDIDYVLLKSATAIT) | – | 0
VSDIDYVPLKSATA(averaged) D3P (VSPIDYVPLKSATA) | 0.4228 | –
QVVSDIDYVPLKSATA P10H (QVVSDIDYVHLKSATA) | – | 0
VSDIDYVPLKSATA(averaged) V1F (FSDIDYVPLKSATA) | 0.0006898 | –
VSDIDYVPLKSATAIT K10A (VSDIDYVPLASATAIT) | – | 0.0372
QVVSDIDYVPLKSATA V9H (QVVSDIDYHPLKSATA) | – | 0.1369
QVVSDIDYVPLKSATA I6F (QVVSDFDYVPLKSATA) | – | 0.000182
QVVSDIDYVPLKSATA T15K (QVVSDIDYVPLKSAKA) | – | 0
VSDIDYVPLKSATA(averaged) S11N (VSDIDYVPLKNATA) | 0.02971 | –
QVVSDIDYVPLKSATA D7G (QVVSDIGYVPLKSATA) | – | 6.7986e-5
VSDIDYVPLKSATAIT K10F (VSDIDYVPLFSATAIT) | – | 0
VSDIDYVPLKSATAIT Y6Y | – | 1
VSDIDYVPLKSATAIT T13K (VSDIDYVPLKSAKAIT) | – | 0
VSDIDYVPLKSATA(averaged) V1I (ISDIDYVPLKSATA) | 0.04855 | –
